Assays:
BVDV = BVDV antiviral assay in MDBK cells, XTT readout of inhibition of virus-induced cell killing; format: cell-based
Method: (§1) Madin-Darby bovine kidney (MDBK) cells were passaged in T-75 flasks for use in the assay. On the day preceding the assay, the cells were trypsinized, pelleted, counted and resuspended at 6×10^4/well in tissue culture medium. Cells were added to 96 well flat bottom plates in a volume of 100 μl per well.
A pretitered aliquot of virus is removed from the freezer (−80° C.) and allowed to thaw slowly to room temperature in a biological safety cabinet. The virus is diluted into tissue culture medium such that the amount of virus added to each well in a volume of 100 μl will be the amount determined to give complete cell killing at 6 days post-infection.
(§2) Interferon was purchased from PBL Biomedical Laboratories (New Brunswick, N.J.) and was in PBS solutions. On the day of testing, the drug stock is diluted in the medium to the desired high concentration and then further diluted in the medium in half log series.
The day following plating of cells, plates are removed from the incubator, and medium is removed and discarded. Drug dilutions are added to appropriate wells of the microtiter plate in a volume of 100 μl per well. Each dilution is set up in triplicate. Complete medium or complete medium containing appropriately diluted virus is added to appropriate wells in a volume of 100 μl per well.
The format of the test plate has been standardized. Each plate contains cell control wells (cell only), virus control wells (cells plus virus), drug toxicity control wells (cells plus drug only), drug colorimetric control wells (drug only) as well as experimental wells (drugs plus cells plus virus).
The cell viability was evaluated by a dye (XTT) uptake procedure. XTT-tetraolium is metabolized by the mitochontrial enzymes of metabolically active cells to a soluble formazan product, allowing the rapid quantitative analysis of the inhibition of virus-induced cell killing by antiviral test substances.
XTT solution was prepared daily as a stock of 1 mg/ml in PBS. Phenazine methosulfate (PMS) solution was prepared at 15 mg/ml in PVBS and stored in the dark at −20° C. STT/PMS stock was prepared immediately before use by diluting PMS 1:100 into PBS and adding 40 μl per ml of XTT solution. Fifty microliters of XTT/PMS was added to each well of the plate (each well had been loaded with 100 μl fresh medium) and the plate was reincubated for 4 hours at 37° C.
Adhesive plate sealers were used in place of the lids, the sealed plate was inverted several times to mix the soluble formazan product and the plate was read spectrophotometrically at 450 nm (XTT) with a Molecular Devices Vmax plate reader.
The efficacy and toxicity of inteferons are analyzed using a computer program (developed by Southern Research Institute) which calculates % CPE reduction, % cell viability, IC25,50 & 95, TC5,50 & 95 and other indices.
Combination effects are analyzed statistically by Prichard and Shipman method. Effects of the drug combination on efficacy and toxicity are calculated based on the activity or toxicity of the two compounds when tested alone. The expected additive inhibition rate of virus production or the expected additive cell viability rate subtracted from the experimentally determined inhibition rate or viability rate at each combination concentration results in a positive value (synergy), a negative value (antagonism), or zero (addivity).

[1] = tested on: Madin-Darby bovine kidney (MDBK) cells
Method: as §1, §2
The day following plating of cells, plates are removed from the incubator, and medium is removed and discarded. Drug dilutions are added to appropriate wells of the microtiter plate in a volume of 100 μl per well. […]
The cell viability was evaluated by a dye (XTT) uptake procedure. XTT-tetraolium is metabolized by the mitochontrial enzymes of metabolically active cells to a soluble formazan product, allowing the rapid quantitative analysis of the inhibition of virus-induced cell killing by antiviral test substances. […]
Adhesive plate sealers were used in place of the lids, the sealed plate was inverted several times to mix the soluble formazan product and the plate was read spectrophotometrically at 450 nm (XTT) with a Molecular Devices Vmax plate reader. […]
Combination effects are analyzed statistically by Prichard and Shipman method. […]

INF-αA: human IFN-α species A, purchased from PBL Biomedical Laboratories
IC50 (BVDV; BVDV in MDBK cells): 2.54 U/ml | Antiviral Percentage Inhibition (BVDV; Compound conc 0, INF-αA conc 0.06): 3.1% | Antiviral Percentage Inhibition (BVDV; Compound conc 0, INF-αA conc 0.19): 0% | Antiviral Percentage Inhibition (BVDV; Compound conc 0, INF-αA conc 0.601): 0% | Antiviral Percentage Inhibition (BVDV; Compound conc 0, INF-αA conc 1.899): 6.3% | Antiviral Percentage Inhibition (BVDV; Compound conc 0, INF-αA conc 6): 11.2% | Antiviral Percentage Inhibition (BVDV; Ribavirin conc 0, INF-αA conc 0.06): 0% | Antiviral Percentage Inhibition (BVDV; Ribavirin conc 0, INF-αA conc 0.19): 0% | Antiviral Percentage Inhibition (BVDV; Ribavirin conc 0, INF-αA conc 0.601): 0% | Antiviral Percentage Inhibition (BVDV; Ribavirin conc 0, INF-αA conc 1.899): 5.8% | Antiviral Percentage Inhibition (BVDV; Ribavirin conc 0, INF-αA conc 6): 15.3% | TI (BVDV; TC50/IC50): >124.22 | Comments (BVDV; activity against BVDV / toxicity): Active/Nontoxic | TC50 [1]: >316.00 U/ml
